# Measured affinities in a library of Ab-91 heavy chain variants

The measurements come from Engelhart et al. 2022 (doi:10.1038/s41597-022-01779-4) through the FLAb antibody collection.

Antigen: PDVDLGDISGINAS, a 14-residue peptide of the SARS-CoV-2 spike HR2 region.

Ab-91 is the parent antibody, in scFv form: VL, then a (GGGGS)3 linker, then VH. The light chain is unchanged in all variants.
VL: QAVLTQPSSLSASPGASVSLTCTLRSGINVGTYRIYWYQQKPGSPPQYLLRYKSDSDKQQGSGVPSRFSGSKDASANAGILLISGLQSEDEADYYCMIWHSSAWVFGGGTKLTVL
VH: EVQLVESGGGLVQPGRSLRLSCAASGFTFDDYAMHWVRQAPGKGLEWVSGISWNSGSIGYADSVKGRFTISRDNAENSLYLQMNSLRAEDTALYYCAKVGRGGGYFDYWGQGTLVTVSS

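Phage display of a naive human antibody library on the peptide gave the parent. Variants in AAYL51 differ from the parent at up to three CDR positions; double and triple changes were sampled at random. AlphaSeq pools MATa yeast showing the antibodies with MATalpha yeast showing the peptide. Mating (16 h, 30 °C) was followed by selection of diploids and sequencing of their barcodes. Each replicate has its own calibration line, from reference interactions of the BCL2 family. The assay was run in three technical replicates.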

Substitutions are numbered in sequence along the VH above, starting at 1 (not Kabat). Affinities are written as log10 Kd with Kd in nM; a lower number is a better binder. Replicates are averaged; those with no signal do not enter the mean. Where no diploid with the target was found in that replicate, the entry reads "ND": below detection, most likely a poor binder, though not proof of it. For reference, the parent read 1.86 as the reference entry and 0.88 as a member of this library. Three control strains display no target. For library AAYL51, 21% of the pairings with them gave a signal, with a median of 4.54 and one signal in twenty below 3.26, so weak values seen in few replicates may be background. For each scFv, signals with the empty controls are counted beside the result, with their mean in brackets.

| # | changes | log10 Kd, replicates | mean, log10 nM | control signals |
|---|---|---|---|---|
| 1 | F29Q+S52K+Y105W | ND ND ND | ND | 0 of 9 |
| 2 | F29Y+G59N+Y105V | ND 4.33 ND | 4.33 | 6 of 9 (5.24) |
| 3 | G102H+F106Q | 1.33 1.60 1.35 | 1.43 | 3 of 9 (3.97) |
| 4 | T28L+G104L+Y108K | 4.93 ND ND | 4.93 | 4 of 9 (4.90) |
| 5 | S52N+A61T | ND 4.09 ND | 4.09 | 2 of 9 (4.62) |
| 6 | G56R+S57I+V99F | ND ND ND | ND | 1 of 9 (4.72) |
| 7 | T28I+D30E+M34L | 2.62 3.87 2.88 | 3.12 | 1 of 9 (4.34) |
| 8 | F29A+A33M+F106R | 5.11 ND ND | 5.11 | 4 of 9 (4.47) |
| 9 | F27I+G104K+F106G | ND ND ND | ND | 1 of 9 (3.62) |
| 10 | G102Q | 3.27 3.15 3.13 | 3.18 | 0 of 9 |
| 11 | F27L+G103I+G104P | ND 5.22 ND | 5.22 | 3 of 9 (3.81) |
| 12 | N54D+I58P+R101M | ND ND ND | ND | 2 of 9 (3.56) |
| 13 | F29P+D31Y+R101G | ND ND ND | ND | 0 of 9 |
| 14 | G56C+I58P+R101C | 4.45 5.66 4.38 | 4.83 | 4 of 9 (4.57) |
| 15 | F29S | ND 4.01 ND | 4.01 | 0 of 9 |
| 16 | S57A+K65R+G102T | 3.92 ND ND | 3.92 | 3 of 9 (4.78) |
| 17 | Y32D+S52T+W53I | 4.43 6.08 ND | 5.25 | 4 of 9 (5.53) |
| 18 | A33L+Y108K | ND ND ND | ND | 4 of 9 (4.39) |
| 19 | M34W+S57H+A61M | ND ND ND | ND | 3 of 9 (3.63) |
| 20 | D31R+A61L+V99Q | ND 5.59 4.80 | 5.20 | 2 of 9 (5.22) |
| 21 | D31V+K65A+Y108I | ND 5.30 ND | 5.30 | 3 of 9 (4.99) |
| 22 | I51Y | ND ND ND | ND | 2 of 9 (4.42) |
| 23 | T28P+I58Q+V99D | ND ND ND | ND | 0 of 9 |
| 24 | S63H+G102P+Y105D | ND ND ND | ND | 2 of 9 (4.30) |
| 25 | M34L+A61V+V99E | 5.29 4.81 4.95 | 5.02 | 4 of 9 (4.34) |
| 26 | A33Q+S52R+R101H | 5.81 3.92 5.02 | 4.92 | 6 of 9 (4.38) |
| 27 | T28F+I58H+Y105G | 4.85 3.49 5.28 | 4.54 | 2 of 9 (4.70) |
| 28 | G59R+V99E | ND ND 4.28 | 4.28 | 0 of 9 |
| 29 | D31E+G103M+G104K | 1.44 1.11 0.59 | 1.05 | 0 of 9 |
| 30 | A33T+W53H+Y60H | ND ND ND | ND | 1 of 9 (3.99) |
| 31 | F29D+N54C+V99A | 4.35 ND ND | 4.35 | 1 of 9 (4.10) |
| 32 | F29L+D31G+H35I | 4.24 4.91 ND | 4.57 | 3 of 9 (4.46) |
| 33 | G102N+Y105V | 2.40 2.09 2.00 | 2.17 | 4 of 9 (3.78) |
| 34 | G56Q+K65S+G102K | ND ND ND | ND | 0 of 9 |
| 35 | M34N+H35Q+G56A | ND 3.43 ND | 3.43 | 5 of 9 (4.31) |
| 36 | W53Y+G56E+D107A | 1.08 1.22 0.56 | 0.95 | 3 of 9 (4.87) |
| 37 | D30T+M34P+I58P | 5.00 ND ND | 5.00 | 1 of 9 (4.58) |
| 38 | D30Q+W53G+G100A | 2.06 2.89 2.53 | 2.49 | 0 of 9 |
| 39 | Y32Q+I51T+G102A | ND ND ND | ND | 2 of 9 (4.80) |
| 40 | W53T+G100R+F106R | 4.49 ND ND | 4.49 | 4 of 9 (4.64) |
| 41 | H35K+R101M+Y108L | 4.51 ND ND | 4.51 | 5 of 9 (4.56) |
| 42 | D62G+K65I+G103A | 3.10 3.26 2.83 | 3.06 | 1 of 9 (3.99) |
| 43 | A33I+R101N+D107M | ND ND ND | ND | 0 of 9 |
| 44 | F29G+D31C+M34L | 4.93 4.76 ND | 4.84 | 6 of 9 (4.73) |
| 45 | W53C+G56E+G59D | ND ND ND | ND | 4 of 9 (5.12) |
| 46 | S57V+K65V+Y108F | ND 4.22 3.45 | 3.84 | 1 of 9 (4.56) |
| 47 | K65I+D107P | 5.07 4.20 ND | 4.64 | 3 of 9 (5.00) |
| 48 | D30Q+D31E | ND ND ND | ND | 1 of 9 (1.91) |
| 49 | I51L+K65M+G104Y | 4.55 4.65 ND | 4.60 | 2 of 9 (4.40) |

Excerpt, the final 7 entries:

changes	log10 Kd, replicates	mean, log10 nM	control signals
A33I+R101N+D107M	ND ND ND	ND	0 of 9
F29G+D31C+M34L	4.93 4.76 ND	4.84	6 of 9 (4.73)
W53C+G56E+G59D	ND ND ND	ND	4 of 9 (5.12)
S57V+K65V+Y108F	ND 4.22 3.45	3.84	1 of 9 (4.56)
K65I+D107P	5.07 4.20 ND	4.64	3 of 9 (5.00)
D30Q+D31E	ND ND ND	ND	1 of 9 (1.91)
I51L+K65M+G104Y	4.55 4.65 ND	4.60	2 of 9 (4.40)